Values of other authors in patent US8022075B2, “Diagnostic and remedy for disease caused by amyloid aggregation and/or deposition” (Fujifilm Ri Pharma Co., Ltd., priority 2005, dated 2011).

Settings: standard substances of liposolubility; values reported in the literature; cited from earlier work

## c1ccc2ccccc2c1 [Naphtalene]
  LogD7.4: 3.37
